Values of other authors as cited in publication PMC7150891, “Mertansine Inhibits mRNA Expression and Enzyme Activities of Cytochrome P450s and Uridine 5′-Diphospho-Glucuronosyltransferases in Human Hepatocytes and Liver Microsomes” (Pharmaceutics, 2020).

System: HER2-positive metastatic breast cancer
Details: patients who received T-DM1 treatment; cited from earlier work

Q: Which “Risk ratio of hepatotoxicity and thrombocytopenia” value does the source give for trastuzumab emtansine [T-DM1] here?
A: significantly higher
